Measurements published in paper PMC12674126.

Legend:
[1] = molecular target: P. sul villin V4V6-HP (residues 355 to 824) (Paralvinella sulfincola); assay: crystal structure; V4V6-HP/actin: V4V6-HP mixed 1:1 with ATP-G-actin, gel filtration in buffer A; sitting drop, 20°C, 0.1 M tris-HCl pH 8.0, 50% PEG 400, 0.2 M Li2SO4, 1 mM CaCl2; 3.29 Å; two complexes in the asymmetric unit
[2] = molecular target: P. sul villin V1V3 (three N-terminal domains V1, V2 and V3) (Paralvinella sulfincola); assay: crystal structure; V1V3/actin: full-length villin mixed 1:2 with ATP-G-actin in buffer A, no gel filtration; sitting drop, 20°C, 0.1 M bis-tris propane pH 8.5, 20% PEG 3350, 0.2 M sodium nitrate, 1 mM CaCl2; one complex in the crystal
[3] = molecular target: Paralvinella sulfincola villin (full length) (Paralvinella sulfincola); assay: crystal structure; VA3: villin and chicken ADP-G-actin mixed 1:3 in 2 mM tris-HCl pH 8.0, 0.2 mM ADP, 1.0 mM DTT, 1 mM CaCl2, then SEC; sitting drop, 20°C, 0.1 M bis-tris propane pH 6.5, 10% PEG 3350, 0.2 M KSCN, 5 mM CaCl2/MgCl2; 2.7 Å; two complexes in the asymmetric unit

## chicken skeletal muscle actin (from UniProt P68139 1-377) (natural protein)
[1]
  stoichiometry N (actin subunits per V4V6-HP): 1
[2]
  stoichiometry N (actin subunits per V1V3): 1
[3]
  stoichiometry N (actin subunits per villin): 3
